The list shows a part of the results, in another mix than the full data. Active and inactive are the calls of the source. Cut-off read from the data, not from the text of the source: active = inhibition above about 16% (passing the limit was not always enough); inactive = the rest.
biological target: Neuropeptides B/W receptor type 1 (Homo sapiens) (UniProt P48145); test: blockers of human neuropeptide B/W receptor 1 – cell-based, fluorescence, single concentration, primary screen (AID 1861); conditions: GPR7-expressing cells, fluorescence antagonist assay; at 4.4 µM; stronger effect = higher value;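 note: cells stimulated with the agonist NPW; 0% = agonist with vehicle and 100% = vehicle without agonist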

Amino acid sequences for entries named in this document (tags omitted). A change or cut given only in a name is not applied to a line headed by its entry.
UniProt P48145: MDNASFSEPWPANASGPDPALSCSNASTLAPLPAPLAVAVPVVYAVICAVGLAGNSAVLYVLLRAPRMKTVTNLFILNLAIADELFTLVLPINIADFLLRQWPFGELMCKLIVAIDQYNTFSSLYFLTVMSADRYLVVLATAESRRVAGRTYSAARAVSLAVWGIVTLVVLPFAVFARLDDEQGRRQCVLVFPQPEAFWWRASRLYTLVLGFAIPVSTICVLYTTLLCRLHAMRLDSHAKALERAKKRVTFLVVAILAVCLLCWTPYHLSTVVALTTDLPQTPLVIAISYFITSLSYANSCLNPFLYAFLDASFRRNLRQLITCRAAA

| SMILES | inhibition |
| --- | --- |
| COc1cc(I)ccc1[As](=O)(O)O | inactive: -16.2% |
| COc1ccc2nc(NP(=O)(c3ccccc3)c3ccccc3)sc2c1 | inactive: 2.34% |
| Cc1c2c(nc3ccccc13)SC(C(Cl)Cl)C2 (configuration not stated) | inactive: -17.6% |
| Cc1cc(=O)[nH]c(N[N+](=O)[O-])n1 | inactive: -2.41% |
| O=C(OC1CN2CCC1CC2)C12CC3CC(CC(C3)C1)C2 (configuration not stated) | inactive: 3.88% |
| COc1ccc(N/C(=N/P(=O)(N2CCOCC2)N2CCOCC2)N2CCOCC2)cc1 | inactive: -7.95% |
| Cc1ccc(OP(=O)(Nc2ccc([N+](=O)[O-])cn2)Oc2ccc(C)cc2)cc1 | inactive: -11.3% |
| Cc1ccc2nc3c(c(C)c2c1)CC(C(Cl)Cl)S3 (configuration not stated) | inactive: -9.68% |
| C[As](=O)(O)c1cccc(C(=O)O)c1 | inactive: -8.37% |
| O=[As](O)(c1ccc(O)cc1)c1ccccc1O | inactive: -13.9% |
| O=[N+]([O-])c1cc([N+](=O)[O-])c(-c2ccn[nH]2)s1 | inactive: -3.51% |
| CCN(CC)C(=S)SC(NC=O)C(Cl)(Cl)Cl (configuration not stated) | inactive: 6.2% |
| CC(C)NC(=O)NP(=O)(Oc1ccccc1)Oc1ccccc1 | inactive: -8.43% |
| ClCCSc1nnc(-c2cccnc2)o1 | inactive: -2.48% |
| CC(C)c1ccc(OP(=O)(Nc2ccccn2)Oc2ccccc2F)cc1 (configuration not stated) | inactive: -9.15% |
| Cc1cc(SC(NC(=O)c2ccccc2)C(Cl)(Cl)Cl)nc(C(C)C)n1 (configuration not stated) | inactive: -5.85% |
| CCCCOc1ccc(C(=O)NCC2(N3CCCCC3)CCCCC2)cc1OC | inactive: -8.24% |
| CCOC(=O)Nc1ccc([As](=O)(O)O)c(O)c1 | inactive: -9.09% |
| O=P(Nc1ccccn1)(c1cccc2ccccc12)c1cccc2ccccc12 | inactive: 2.65% |
| Cc1cc(SC(NC=O)C(Cl)(Cl)Cl)ncn1 (configuration not stated) | inactive: 0.49% |
| O=[N+]([O-])c1ccc(Nc2ccc(Oc3ccc([N+](=O)[O-])cc3[N+](=O)[O-])cc2)c([N+](=O)[O-])c1 | inactive: -13.6% |
| CCOC(=O)Nc1cccc([As](=O)(O)O)c1 | inactive: -6.91% |
| O=C(Nc1ccncc1[N+](=O)[O-])c1ccc([N+](=O)[O-])cc1[N+](=O)[O-] | inactive: -8.32% |
| O=C(COc1ccccc1)OC1CN2CCC1CC2 (configuration not stated) | inactive: -3.16% |
| COP1(=S)c2c(C)nn(CCC#N)c2N=C(c2ccc(F)cc2)N1C (configuration not stated) | inactive: -2.6% |
| CCC(C)N(CC(C)C)C(=S)SC(NC(C)=O)C(Cl)(Cl)Cl (configuration not stated) | inactive: -10.2% |

| SMILES | inhibition |
| --- | --- |
| O=C(OC1CN2CCC1CC2)c1cccc([N+](=O)[O-])c1 (configuration not stated) | inactive: -1.67% |
| CCOC(=O)c1ccc(NC(=O)C(C)(CCl)SC)cc1 (configuration not stated) | inactive: -8.48% |
| CC(C)(C)C(=O)NC(Sc1ncccn1)C(Cl)(Cl)Cl (configuration not stated) | inactive: -6.75% |
| Clc1n[nH]nc1-c1nn[nH][15n]1 | inactive: -9.8% |
| CCOP(=O)(NC(=NC(C)c1ccccc1)NC(C)c1ccccc1)OCC (configuration not stated) | inactive: 4.85% |
| O=P1(Nc2ccccn2)COc2ccccc2OC1 | inactive: -8.17% |
| CCC1=CC2Cc3nc4ccc(Cl)cc4c(N)c3C(C1)C2 (configuration not stated) | inactive: 8.19% |
| CCOP(=O)(Nc1ccc(C)cn1)OCC | inactive: -8.83% |
| CC(C)/C=N\N=C(\N)N[N+](=O)[O-] | inactive: -7.42% |
| CC1(CBr)Cn2c(nc3ccccc3c2=O)S1 (configuration not stated) | inactive: -9.32% |
| O=[As](O)(c1ccccc1Br)c1ccccc1Br | inactive: -2.68% |
| CN(C)C1(CNC(=O)c2ccc(S(C)(=O)=O)cc2)CCCCC1 | inactive: 7.95% |
| O=C(/C=C/c1ccccc1)OC1CN2CCC1CC2 (configuration not stated) | inactive: -2.21% |
| CC1CCC(C(C)C)C(OP(=O)(Nc2ccccn2)c2ccccc2)C1 (configuration not stated) | inactive: -7.97% |
| Cc1ccc(C(=O)OC2CN3CCC2CC3)cc1 (configuration not stated) | inactive: -12.8% |
| Cc1nn(-c2ccccc2)c2c1P(=O)(N1CCOCC1)N(C)C(c1ccccc1)=N2 (configuration not stated) | inactive: -7.13% |
| Nc1cccc([As](=O)(O)c2ccccc2)c1 | inactive: -5.81% |
| O=P1(Nc2ccc(Br)cn2)COc2ccccc2OC1 | inactive: -3.53% |
| Cc1ccc(OCC(=O)OC2CN3CCC2CC3)cc1 (configuration not stated) | inactive: 0.51% |
| O=[As](O)(c1cccs1)c1cccs1 | inactive: -3.72% |
| O=P1(Nc2ncccn2)COc2ccccc2OC1 | inactive: -8.57% |
| Nc1ccccc1[As](=O)(O)c1ccccc1 | inactive: -11.4% |
| O=C(O)COc1ccc([As](=O)(O)O)cc1[N+](=O)[O-] | inactive: 3.6% |
| O=P(Nc1nccs1)(c1ccccc1)c1nc2ccccc2s1 (configuration not stated) | inactive: -6.27% |
| O=P(Nc1nccs1)(Oc1ccccc1)Oc1ccccc1 | inactive: -16% |
| CCOP1(=S)c2c(C)nn(CCC#N)c2N=C(c2ccccc2F)N1C (configuration not stated) | inactive: 4.59% |

| SMILES | inhibition |
| --- | --- |
| CS(=O)(=O)c1cc([N+](=O)[O-])c2no[n+]([O-])c2c1 | inactive: -9.73% |
| CCOP1(=S)c2c(C)nn(CCC#N)c2N=C(c2ccc(F)cc2)N1C (configuration not stated) | inactive: 1.47% |
| O=[N+]([O-])c1ccc2c(c1)nnn2O | inactive: -4.72% |
| O=[As](O)(c1cccc(O)c1)c1cccc(O)c1 | inactive: -6.35% |
| Cc1cccc(OCC(=O)OC2CN3CCC2CC3)c1 (configuration not stated) | inactive: -11.2% |
| O=C(OC1CN2CCC1CC2)c1ccc(Cl)cc1 (configuration not stated) | inactive: -8.81% |
| CS(=O)(=O)c1ccc(Cl)c(NC(=O)COC(=O)C(O)(c2ccccc2)c2ccccc2)c1 | inactive: -9.94% |
| COc1cc(C(=O)NCC2(N3CCOCC3)CCCCC2)cc(Cl)c1OC(C)C | inactive: -12.1% |
| O=[As](O)(O)c1cccnc1 | inactive: -13.2% |
| CCOP(=O)(Nc1cccc2ccccc12)OCC | inactive: 3.45% |
| COc1cc(C2NCCC3(OCCO3)C2(C)C)cc(OC)c1OC (configuration not stated) | inactive: -10% |
| Cc1ccc(NCCc2c([N+](=O)[O-])cc([N+](=O)[O-])cc2[N+](=O)[O-])cc1 | inactive: -6.45% |
| Nc1cccc2c([As](=O)(O)O)cccc12 | inactive: -7.3% |
| CCCOP(=S)(Nc1nc(N)cc(=O)[nH]1)OCCC | inactive: -8.19% |
| CC(C)(C)C(=O)NC(Sc1ccccc1)C(Cl)(Cl)Cl (configuration not stated) | inactive: -14.6% |
| CCOc1ccc(C2=NCC(CBr)S2)cc1 (configuration not stated) | inactive: -4.45% |
| O=P1(Nc2nc3ccc(Cl)cc3s2)COc2ccccc2O1 (configuration not stated) | inactive: -3.65% |
| CC(=O)Nc1ccc(Oc2c([N+](=O)[O-])cc([N+](=O)[O-])cc2[N+](=O)[O-])cc1 | inactive: -12.2% |
| CC(=O)Nc1ccc([As](=O)(O)O)c(O)c1 | inactive: 3.09% |
| CC(=O)c1ccc(N2CC2c2ccncc2)cc1 (configuration not stated) | inactive: 14.5% |
| Cc1ccc(NP(=O)(Oc2cccc(C)c2)Oc2cccc(C)c2)nc1 | inactive: 19.6% |
| CCOC(=O)NC(Sc1ccccc1)C(Cl)(Cl)Cl (configuration not stated) | inactive: 4.25% |
| c1ccc(-c2nn[nH]n2)c(-c2nn[nH]n2)c1 | inactive: -0.14% |
| CCNC(=S)/N=C(\N)N[N+](=O)[O-] | inactive: -13.9% |
| O=C(NC1CCS(=O)(=O)C1)NP(=S)(Oc1ccccc1)Oc1ccccc1 (configuration not stated) | inactive: -14.4% |
| CN(C)C(=O)Oc1noc2ccccc12 | inactive: -8.85% |

| SMILES | inhibition |
| --- | --- |
| O=c1c2cc([N+](=O)[O-])ccc2[nH]c2c([N+](=O)[O-])cc([N+](=O)[O-])cc12 | active: 46.1% |
| Cc1ccccc1OP(=O)(Nc1ccccn1)Oc1ccccc1C | inactive: -10.1% |
| CCC(=O)N1C2C3N(C(=O)CC)C1C1N(C(=O)CC)C(C(N1C(=O)CC)N3C(=O)CC)N2C(=O)CC | inactive: -3.12% |
| O=C(OC1CN2CCC1CC2)c1ccccc1 (configuration not stated) | inactive: 13.3% |
| CC(=O)NC(SC(=S)N(CC(C)C)CC(C)C)C(Cl)(Cl)Cl (configuration not stated) | inactive: 3.43% |
| Cc1ccc(OP(=O)(Nc2ccccn2)Oc2ccc(C)cc2)cc1 | inactive: 12.3% |
| COC(=O)c1cc2c(s1)N=C(c1ccccc1)N(C)P2(=O)N1CCOCC1 (configuration not stated) | inactive: -15.7% |
| O=P(Nc1nc2ccccc2s1)(c1ccccc1)c1ccccc1 | inactive: -4.66% |
| O=P(Nc1ccccn1)(c1ccc(Br)cc1)c1ccc(Br)cc1 | inactive: -1.6% |
| CN(C)C1(CNC(=O)c2ccc(Cl)c(S(N)(=O)=O)c2)CCCCC1 | inactive: -6.5% |
| O=C(OC1CN2CCC1CC2)c1cccc(Cl)c1 (configuration not stated) | inactive: -14.5% |
| Nc1ccc([As](=O)(O)c2ccc([N+](=O)[O-])cc2)cc1 | inactive: 10.7% |
| C(Cc1nn[nH]n1)Cc1nn[nH]n1 | inactive: -2.58% |
| O=[As](O)(c1ccccc1)c1ccc(O)cc1 | inactive: 1.5% |
| O=[N+]([O-])c1ccc(O)c(/C=N/Nc2ccc([N+](=O)[O-])cc2[N+](=O)[O-])c1 | inactive: 1.47% |
| CC(=O)NC(SC(=S)N(C)C)C(Cl)(Cl)Cl (configuration not stated) | inactive: -2.78% |
| O=[N+]([O-])c1ncn(CCn2cnc([N+](=O)[O-])n2)n1 | inactive: -4.51% |
| c1nnnn1CCn1cnnn1 | inactive: -6.51% |
| CC(C)C(=O)NC(Sc1ccccc1)C(Cl)(Cl)Cl (configuration not stated) | inactive: -3.19% |
| O=P(Nc1nccs1)(c1ccccc1)c1ccccc1 | inactive: -6.45% |
| CCc1nc2c(n1)c1c(non1O)c1c2no[n+]1[O-] | inactive: -11.9% |
| O=[N+]([O-])c1cc([N+](=O)[O-])c(CCNc2ccccc2)c([N+](=O)[O-])c1 | inactive: -11.2% |
| Cc1ccc(NP(=O)(Oc2ccccc2)Oc2ccccc2)nc1 | inactive: -9.43% |
| O=[N+]([O-])c1cccc2n[nH]nc12 | inactive: -12.9% |
